# Measured values published in patent US20040234501A1, “Hepatitis b virus proliferation inhibitor” (priority 2001, published 2004).
# B1: interferon-β (protein, UniProt P01574 22-187, looked up)
# Interferon beta: MSYNLLGFLQRSSNFQCQKLLWQLNGRLEYCLKDRMNFDIPEEIKQLQQFQKEDAALTIYEMLQNIFAIFRQDSSSTGWNETIVENLLANVYHQINHLKTVLEEKLEKEDFTRGKLMSSLHLKRYYGRILHYLKAKEYSHCAWTIVRVEILRNFYFINRLTGYLRN
# Columns and labels:
# hepatitis B virus = assay: Amount of hepatitis B virus in the blood (HBV-DNA) and emergence of resistant virus in a patient with chronic hepatitis B; assay type: in vivo, human
# Method: (§1) Confirmation of the effect of IFN administration to a patient with chronic hepatitis B:
# (§2) Therefore, 3,000,000 units of IFN-α were administered for a total of 28 days.
# [1] = Liver function (GPT) in a patient with chronic hepatitis B; assay type: in vivo, human
# Method: as §1, §2
# [2] = about 4 months after termination of IFN-β administration
molecule,measurement,setting,value
B1,hepatitis B virus in the blood,"hepatitis B virus; 3,000,000 units IFN-β intravenously for 30 weeks, at termination of administration, YMDD mutant case during long-term lamivudine",became negative
same,hepatitis B virus in the blood,hepatitis B virus; [2],remained negative
same,liver function,"[1]; 3,000,000 units IFN-β intravenously for 30 weeks, at termination of administration",normalized
same,liver function,[1]; [2],remained normal
